Test results: article PMC2533787 (The Journal of Biological Chemistry, 2008)

Key:
Assay in all cases: SPR
[1] = target: T1, BMP-13 (UniProt Q6KF10 336-455)
T1 sequence (looked up): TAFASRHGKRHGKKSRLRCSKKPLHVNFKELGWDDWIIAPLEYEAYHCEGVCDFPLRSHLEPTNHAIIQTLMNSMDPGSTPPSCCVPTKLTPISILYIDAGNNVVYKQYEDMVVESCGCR

[2] = target: T2, soluble receptor activator of NF-κB ligand (UniProt O14788 140-317)
T2 sequence (looked up): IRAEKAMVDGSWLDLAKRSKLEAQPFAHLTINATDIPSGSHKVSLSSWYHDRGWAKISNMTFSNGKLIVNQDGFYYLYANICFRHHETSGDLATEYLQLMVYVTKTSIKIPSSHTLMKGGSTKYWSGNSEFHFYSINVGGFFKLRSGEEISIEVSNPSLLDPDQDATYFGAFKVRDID

[3] = target: T3, bone morphogenetic protein-2 (UniProt P12643 283-396)
T3 sequence (looked up): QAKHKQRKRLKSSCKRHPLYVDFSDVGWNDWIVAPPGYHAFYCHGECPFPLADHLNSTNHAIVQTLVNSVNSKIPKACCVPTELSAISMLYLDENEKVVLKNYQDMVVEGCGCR

[4] = target: T4, BMP-14 (UniProt P43026 382-501)
T4 sequence (looked up): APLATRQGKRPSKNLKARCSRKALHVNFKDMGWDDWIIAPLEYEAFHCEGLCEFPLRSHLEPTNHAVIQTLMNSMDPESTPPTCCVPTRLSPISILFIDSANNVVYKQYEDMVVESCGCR

- Kd [1]: 2840 nM
- Kd [2]: 8250 nM
- Kd [3]: 2430 nM
- Kd [4]: 1100 nM
B1: Link_TSG6 (the Link module of human TSG-6) (domain or fragment, UniProt P98066 36-133, looked up)
chain: GVYHREARSGKYKLTYAEAKAVCEFEGGHLATYKQLEAARKIGFHVCAAGWMAKGRVGYPIVKPGPNCGFGKTGIIDYGIRLNRSERWDAYCYNPHAK
